The results in this text go back to publication PMC3772838, “Preclinical Development of a Novel Class of CXCR4 Antagonist Impairing Solid Tumors Growth and Metastases” (PLoS ONE, 2013).

For the series the following is noted: prevented in vivo evaluation.

Turning to “Arg-Ala-[Cys-Arg-Tyr-Trp-Cys] [Peptide T]”, the solubility entry is “poor solubility”.
